According to patent US4939142A, “Substituted styrene derivatives” (priority 1989, dated 1990):

System: pentetrazole spasm
Assay: Inhibition of pentetrazol spasm on mice
Details: Table V, LD50/ED50

CN1C(=O)OC(C)(C)C1=O [Trimethadion, reference compound]
Therapeutical index: 4.3
